Data reported in patent US20060177448A1, “Inhibiting HER2 shedding with matrix metalloprotease antagonists” (Genentech, Inc., priority 2005, published 2006).

Legend:
Type in all cases: cell-based, human
Conditions in all cases: 10 μg/ml
[1] = test system: SKBR-3 cells; test: HER2 ECD ELISA of conditioned media (HER2 shedding), SKBR-3 cells
[2] = test system: SKBR-3 cells; test: Proliferation assay (Alamar blue), SKBR-3 cells
[3] = test system: BT 474 cells; test: HER2 ECD ELISA of conditioned media (HER2 shedding), BT 474 cells
[4] = test system: BT 474 cells; test: Proliferation assay (Alamar blue), BT 474 cells

trastuzumab: antibody comprising the light and heavy chain amino acid sequences in SEQ ID NOS. 5 and 6; humanized version of murine HER2 antibody 4D5
reduction of HER2 ECD shedding [1]: more than 60%
reduction of cellular proliferation [2]: 50%
reduction of HER2 ECD shedding [3]: more than 60%
reduction of cellular proliferation [4]: 50%
